The source of these data is US8569379B2, “Use of rasagiline for the treatment of olfactory dysfunction” (Teva Pharmaceutical Industries Ltd., priority 2010, dated 2013).

For the assay, the system named is alpha-synuclein over-expressing (mutants) mice (Thy1-aSyn). The conditions noted are these: α-syn mutants receiving rasagiline; individual mice. An excerpt:
Transgenic mice overexpressing alpha-synuclein under the Thy1 promoter (Thy1-aSyn) have high levels of alpha-synuclein expression throughout the brain but no loss of nigrostriatal dopamine neurons up to 8 months. […] Overexpression of alpha-synuclein is sufficient to cause olfactory deficits in mice similar to that observed in patients with PD (2).
The time periods that mice spent sniffing lemon and lime were compared. The testing parameters were percentage of time of sniffing lemon out of total time of sniffing and percentage of time of sniffing lime out of total time of sniffing.

For the compound `C#CCN[C@@H]1CCc2ccccc21` [Rasagiline, R(+)-N-propargyl-1-aminoindan], the “% Time sniffing Lemon” value is 48.5%.
